Results from ChEMBL document CHEMBL1133538, “7-Deazaadenines bearing polar substituents: structure-activity relationships of new A(1) and A(3) adenosine receptor antagonists” (J Med Chem, 2000).

Amino acid sequences for entries named in this document (tags omitted).
UniProt P25099, whole entry: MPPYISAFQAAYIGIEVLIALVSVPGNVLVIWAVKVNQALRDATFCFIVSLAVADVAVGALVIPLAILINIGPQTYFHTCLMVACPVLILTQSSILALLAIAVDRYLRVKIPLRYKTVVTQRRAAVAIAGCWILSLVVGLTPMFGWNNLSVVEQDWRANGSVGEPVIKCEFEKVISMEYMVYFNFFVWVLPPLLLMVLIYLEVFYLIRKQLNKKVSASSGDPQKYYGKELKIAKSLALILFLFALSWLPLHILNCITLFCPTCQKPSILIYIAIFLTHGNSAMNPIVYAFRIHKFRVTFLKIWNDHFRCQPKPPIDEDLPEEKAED

Molecular target: Adenosine receptor A1 (Rattus norvegicus, UniProt P25099)
Test: Tested for its binding affinity at adenosine A1 receptor in rat brain cortical membrane preparations using [3H]CCPA as a radioligand
Type: cell membranes
Outline: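 Rat brain cortical membranes, A1 agonist radioligand [3H]CCPA at 0.5 nM. Compounds dissolved in DMSO, diluted into aqueous buffer, tested at 5-7 concentrations in triplicate, at least three separate experiments. IC50 from nonlinear curve fitting, converted to Ki with Cheng-Prusoff using KD 0.2 nM.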

Nc1nc(-c2cccnc2)nc2c1c1c(n2-c2ccccc2)CCCC1
Ki: 7.9 µM
